Target: CDK19 (Homo sapiens, UniProt Q9BWU1)
Test: Kinase panel test, binding-inhibiting activity against CDK19
Details: estimated from binding inhibition at 0.1 μM and 1 μM; "6" depicts IC50 ≥ 1 μM, "8" depicts IC50 ≤ 10 nM; read-out: Estimate pIC50 value CDK19 (converted)
Experimental: The test compounds diethyl (E)-(4-(3-(5-(4-fluorophenyl)-1-methyl-1H-pyrazol-4-yl)acrylamido)benzyl)phosphonate (compound 1), 2-(4-(4-(isoquinolin-4-yl)phenyl)-1H-pyrazol-1-yl)-N,N-dimethylacetamide (compound 2 (BI-1347)), and 4-((2-(6-(4-methylpiperazine-1-carbonyl)naphthalen-2-yl)ethyl)amino)quinazoline-6-carbonitrile (compound 3 (Senexin B)) were evaluated for their ALK4-inhibiting activity, ALK5-inhibiting activity, CDK8-inhibiting activity and CDK19-inhibiting activity by the following method.
In the kinase panel test, 0.1 μM or 1 μM (that is, the seventh or sixth power of the −Log10 value) of each test compound was added to each of the kinases ALK4, ALK5, CDK8, and CDK19, and binding-inhibiting activity thereof was measured from 0 to 100%. Estimate pIC50 was calculated from the obtained two values and indicated by a value of 6 to 8.

By UniProt entry, the sequences of proteins in these tests, tags left out.
UniProt Q9BWU1, whole entry, species assumed: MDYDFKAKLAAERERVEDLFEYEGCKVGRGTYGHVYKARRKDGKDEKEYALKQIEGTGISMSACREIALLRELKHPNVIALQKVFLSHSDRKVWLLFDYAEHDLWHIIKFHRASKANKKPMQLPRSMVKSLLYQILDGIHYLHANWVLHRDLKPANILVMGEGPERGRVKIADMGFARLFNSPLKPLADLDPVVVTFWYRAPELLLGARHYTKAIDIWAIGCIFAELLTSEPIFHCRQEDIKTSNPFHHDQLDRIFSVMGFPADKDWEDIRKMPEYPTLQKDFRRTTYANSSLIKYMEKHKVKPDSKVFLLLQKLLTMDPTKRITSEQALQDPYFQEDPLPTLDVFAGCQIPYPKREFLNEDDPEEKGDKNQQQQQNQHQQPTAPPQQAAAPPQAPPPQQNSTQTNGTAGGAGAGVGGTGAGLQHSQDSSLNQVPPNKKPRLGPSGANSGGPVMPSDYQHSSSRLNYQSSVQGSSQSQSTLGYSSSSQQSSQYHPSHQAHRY

CN1CCN(C(=O)c2ccc3cc(CCNc4ncnc5ccc(C#N)cc45)ccc3c2)CC1 [Compound 3, 4-((2-(6-(4-methylpiperazine-1-carbonyl)naphthalen-2-yl)ethyl)amino)quinazoline-6-carbonitrile]
IC50: ≤ 0.01 µM

Source: patent US20230399607A1, “MATURATION AGENT” (Orizuru Therapeutics, Inc., priority 2020, published 2023)
